Source: ChEMBL document CHEMBL3853350, “Discovery of a Selective Phosphoinositide-3-Kinase (PI3K)-γ Inhibitor (IPI-549) as an Immuno-Oncology Clinical Candidate” (ACS Med Chem Lett, 2016)

The chains behind the UniProt entries cited, without tags or fusion partners. Where a name states a change or a piece, a line headed by the entry shows the natural chain unless it says otherwise.
UniProt P48736: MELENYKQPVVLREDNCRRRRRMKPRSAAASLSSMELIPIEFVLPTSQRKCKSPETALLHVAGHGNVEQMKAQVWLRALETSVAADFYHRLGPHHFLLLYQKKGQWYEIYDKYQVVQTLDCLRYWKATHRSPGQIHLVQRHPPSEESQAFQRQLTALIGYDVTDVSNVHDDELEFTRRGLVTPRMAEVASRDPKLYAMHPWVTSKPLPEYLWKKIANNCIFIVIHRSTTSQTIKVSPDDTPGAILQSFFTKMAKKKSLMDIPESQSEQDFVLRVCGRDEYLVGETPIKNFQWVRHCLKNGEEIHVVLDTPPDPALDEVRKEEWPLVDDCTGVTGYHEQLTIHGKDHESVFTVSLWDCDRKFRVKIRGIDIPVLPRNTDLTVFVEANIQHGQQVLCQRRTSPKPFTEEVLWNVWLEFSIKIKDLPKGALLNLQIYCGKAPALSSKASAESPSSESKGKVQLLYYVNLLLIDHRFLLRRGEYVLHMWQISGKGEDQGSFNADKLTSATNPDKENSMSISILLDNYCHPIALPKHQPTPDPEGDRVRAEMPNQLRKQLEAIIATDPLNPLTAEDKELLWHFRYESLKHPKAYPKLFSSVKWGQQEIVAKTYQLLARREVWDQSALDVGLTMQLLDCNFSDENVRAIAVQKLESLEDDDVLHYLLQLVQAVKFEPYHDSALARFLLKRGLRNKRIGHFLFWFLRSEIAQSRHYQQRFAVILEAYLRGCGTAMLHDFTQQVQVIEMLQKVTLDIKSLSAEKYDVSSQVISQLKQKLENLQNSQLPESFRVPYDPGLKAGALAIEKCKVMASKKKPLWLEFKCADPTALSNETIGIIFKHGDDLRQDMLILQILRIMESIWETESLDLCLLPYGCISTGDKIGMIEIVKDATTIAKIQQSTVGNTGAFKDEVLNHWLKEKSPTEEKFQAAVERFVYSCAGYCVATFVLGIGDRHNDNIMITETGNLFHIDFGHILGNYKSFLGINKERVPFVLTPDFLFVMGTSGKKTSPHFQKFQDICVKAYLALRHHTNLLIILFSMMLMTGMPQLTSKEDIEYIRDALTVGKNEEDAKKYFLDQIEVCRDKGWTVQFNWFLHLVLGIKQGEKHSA
UniProt P42336, whole entry: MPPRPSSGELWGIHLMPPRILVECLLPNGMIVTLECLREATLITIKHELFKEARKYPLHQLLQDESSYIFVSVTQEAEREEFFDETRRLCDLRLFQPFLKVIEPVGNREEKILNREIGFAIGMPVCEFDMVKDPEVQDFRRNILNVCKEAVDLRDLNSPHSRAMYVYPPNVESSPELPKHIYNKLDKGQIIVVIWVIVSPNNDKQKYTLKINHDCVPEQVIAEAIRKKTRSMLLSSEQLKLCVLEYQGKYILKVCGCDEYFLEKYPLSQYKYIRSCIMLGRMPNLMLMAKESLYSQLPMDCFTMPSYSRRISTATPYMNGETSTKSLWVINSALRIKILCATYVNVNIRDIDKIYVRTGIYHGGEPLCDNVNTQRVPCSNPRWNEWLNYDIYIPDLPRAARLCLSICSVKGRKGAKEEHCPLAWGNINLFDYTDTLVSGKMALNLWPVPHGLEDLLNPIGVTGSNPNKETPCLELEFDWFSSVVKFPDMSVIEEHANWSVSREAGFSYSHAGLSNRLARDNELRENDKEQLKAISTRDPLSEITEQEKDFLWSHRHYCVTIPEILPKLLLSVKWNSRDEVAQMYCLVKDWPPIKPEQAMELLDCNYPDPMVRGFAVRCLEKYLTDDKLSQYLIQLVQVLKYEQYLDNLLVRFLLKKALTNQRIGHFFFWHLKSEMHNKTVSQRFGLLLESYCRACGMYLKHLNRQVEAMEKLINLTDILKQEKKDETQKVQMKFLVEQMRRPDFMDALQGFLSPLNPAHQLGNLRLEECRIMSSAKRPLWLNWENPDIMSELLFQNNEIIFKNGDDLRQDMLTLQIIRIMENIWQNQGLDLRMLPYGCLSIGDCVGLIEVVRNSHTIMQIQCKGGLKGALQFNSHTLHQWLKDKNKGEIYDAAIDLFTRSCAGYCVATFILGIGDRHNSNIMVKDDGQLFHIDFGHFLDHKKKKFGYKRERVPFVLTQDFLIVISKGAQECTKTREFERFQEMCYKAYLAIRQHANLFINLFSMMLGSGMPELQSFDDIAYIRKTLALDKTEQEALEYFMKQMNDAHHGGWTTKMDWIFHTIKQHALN

Assays:
[1] = biological target: Phosphatidylinositol 4,5-bisphosphate 3-kinase catalytic subunit gamma isoform (Homo sapiens, UniProt P48736); assay: biochemical
[2] = biological target: Phosphatidylinositol 4,5-bisphosphate 3-kinase catalytic subunit alpha isoform (Homo sapiens, UniProt P42336); assay: Inhibition of PI3Kalpha in human SKOV-3 cells assessed as reduction in AKT phosphorylation at S473 after 30 mins by ELISA; format: cell-based, SK-OV-3
[3] = biological target: T1, PI3-kinase p110-delta/p85-alpha (Homo sapiens, UniProt O00329); assay: Inhibition of human recombinant full length N-terminal GST-tagged PI3K p110delta/p85alpha coexpressed in baculovirus infected Sf9 insect cells using diC8PIP2 as substrate incubated for 15 mins followed by substrate addition measured after 2 hr by ADP-Glo luminescence assay
[4] = biological target: T2, PI3-kinase p110-alpha/p85-alpha (Homo sapiens, UniProt P42336); assay: Inhibition of human recombinant full length N-terminal His6-tagged PI3K p110alpha/p85alpha coexpressed in baculovirus infected Sf9 insect cells using diC8PIP2 as substrate incubated for 15 mins followed by substrate addition measured after 2 hr by ADP-Glo luminescence assay
[5] = biological target: T3, Phosphatidylinositol 4,5-bisphosphate 3-kinase catalytic subunit delta isoform (Homo sapiens, UniProt O00329); assay: Inhibition of PI3Kdelta in IgM-stimulated human Raji cells assessed as reduction in AKT phosphorylation at S473 incubated for 30 mins followed by stimulation with IgM for 30 mins by ELISA; format: cell-based
T3 sequence (O00329 whole entry): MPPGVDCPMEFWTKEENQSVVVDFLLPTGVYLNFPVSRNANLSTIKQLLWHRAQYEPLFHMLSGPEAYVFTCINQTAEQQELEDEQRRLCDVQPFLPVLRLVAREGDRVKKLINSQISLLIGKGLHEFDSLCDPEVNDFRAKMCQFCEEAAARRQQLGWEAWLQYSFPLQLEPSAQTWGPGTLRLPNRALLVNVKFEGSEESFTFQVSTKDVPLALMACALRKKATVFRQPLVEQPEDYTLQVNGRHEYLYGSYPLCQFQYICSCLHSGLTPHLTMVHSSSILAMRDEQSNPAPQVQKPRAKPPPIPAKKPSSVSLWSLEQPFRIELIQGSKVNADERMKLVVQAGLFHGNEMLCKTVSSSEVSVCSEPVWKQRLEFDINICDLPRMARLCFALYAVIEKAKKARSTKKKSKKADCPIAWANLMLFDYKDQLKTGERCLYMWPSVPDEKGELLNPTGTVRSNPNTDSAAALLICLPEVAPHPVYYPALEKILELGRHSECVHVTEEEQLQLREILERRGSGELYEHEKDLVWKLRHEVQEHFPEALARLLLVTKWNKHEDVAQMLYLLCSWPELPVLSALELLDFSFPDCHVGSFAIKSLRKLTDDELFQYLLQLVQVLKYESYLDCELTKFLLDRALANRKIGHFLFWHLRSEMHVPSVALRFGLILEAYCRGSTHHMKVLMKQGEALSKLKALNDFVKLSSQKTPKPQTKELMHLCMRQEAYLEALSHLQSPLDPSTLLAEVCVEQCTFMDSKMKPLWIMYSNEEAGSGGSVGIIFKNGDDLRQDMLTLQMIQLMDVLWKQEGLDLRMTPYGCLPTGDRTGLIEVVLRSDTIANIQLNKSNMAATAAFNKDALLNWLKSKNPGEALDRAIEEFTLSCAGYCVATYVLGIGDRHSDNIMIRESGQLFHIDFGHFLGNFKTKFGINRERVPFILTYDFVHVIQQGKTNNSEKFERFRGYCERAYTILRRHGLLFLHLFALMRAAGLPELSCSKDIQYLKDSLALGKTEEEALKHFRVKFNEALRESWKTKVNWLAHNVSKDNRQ

[6] = biological target: T2, PI3-kinase p110-alpha/p85-alpha; assay: Binding affinity to human recombinant full length N-terminal His6-tagged PI3K p110alpha/p85alpha coexpressed in baculovirus infected Sf9 insect cells by equilibrium fluorescence titration analysis
[7] = biological target: T1, PI3-kinase p110-delta/p85-alpha; assay: Binding affinity to human recombinant full length N-terminal GST-tagged PI3K p110delta/p85alpha coexpressed in baculovirus infected Sf9 insect cells by equilibrium fluorescence titration analysis

IC50 [1] | IC50 [2] | IC50 [3] | IC50 [4] | IC50 [5] | Kd [6] | Kd [7] | Compound
300 nM |  |  |  |  |  |  | C[C@H](NC(=O)c1c(N)nn2ccccc12)c1cc2cccc(Cl)c2c(=O)n1-c1ccccc1
 | 250 nM | > 8400 nM | 3200 nM | 180 nM | 17 nM | 23 nM | C[C@H](NC(=O)c1c(N)nn2cccnc12)c1cc2cccc(C#Cc3cnn(C)c3)c2c(=O)n1-c1ccccc1 [EGANELISIB]
